Chains of the proteins cited; added tags and fusions are not shown. Lines headed by an entry give the natural chain unless they say otherwise; changes in a name come on top.
UniProt P50391: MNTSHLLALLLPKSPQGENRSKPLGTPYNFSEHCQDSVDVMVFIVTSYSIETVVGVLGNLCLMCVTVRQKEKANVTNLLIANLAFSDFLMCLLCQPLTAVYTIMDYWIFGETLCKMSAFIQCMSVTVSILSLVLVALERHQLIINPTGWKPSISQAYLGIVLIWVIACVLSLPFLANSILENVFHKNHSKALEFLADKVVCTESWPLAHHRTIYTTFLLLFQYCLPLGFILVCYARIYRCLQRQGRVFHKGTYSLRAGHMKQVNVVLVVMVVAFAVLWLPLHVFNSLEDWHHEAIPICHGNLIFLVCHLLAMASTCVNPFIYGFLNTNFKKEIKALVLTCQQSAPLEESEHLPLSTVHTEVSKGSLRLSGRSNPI
UniProt P25929, whole entry: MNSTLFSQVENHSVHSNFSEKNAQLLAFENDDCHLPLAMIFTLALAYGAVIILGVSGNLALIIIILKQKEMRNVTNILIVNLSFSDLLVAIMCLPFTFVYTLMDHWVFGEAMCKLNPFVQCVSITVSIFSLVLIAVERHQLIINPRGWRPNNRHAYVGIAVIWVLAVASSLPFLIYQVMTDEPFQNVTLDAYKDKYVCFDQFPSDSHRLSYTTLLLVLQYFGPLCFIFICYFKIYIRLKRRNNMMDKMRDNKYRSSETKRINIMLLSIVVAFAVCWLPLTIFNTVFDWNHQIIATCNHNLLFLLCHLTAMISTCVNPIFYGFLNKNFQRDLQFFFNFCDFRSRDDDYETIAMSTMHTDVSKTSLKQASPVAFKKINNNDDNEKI

In US10005824B2, “Selective PYY compounds and uses thereof” (Novo Nordisk A/S, priority 2015, dated 2018):

Assays:
human Y5 receptor = target: T1, human Y5 receptor (Homo sapiens, UniProt Q15761); experiment: Scintillation proximity assay (SPA) receptor binding, Y5; conditions: read-out: Y5 Ki; membranes of HEK-293 cells, [125I]-PYY(1-36)
T1 construct: expressed in transfected cells; host or cells: HEK-293 (membrane preparation)
T1 sequence (Q15761 1-445): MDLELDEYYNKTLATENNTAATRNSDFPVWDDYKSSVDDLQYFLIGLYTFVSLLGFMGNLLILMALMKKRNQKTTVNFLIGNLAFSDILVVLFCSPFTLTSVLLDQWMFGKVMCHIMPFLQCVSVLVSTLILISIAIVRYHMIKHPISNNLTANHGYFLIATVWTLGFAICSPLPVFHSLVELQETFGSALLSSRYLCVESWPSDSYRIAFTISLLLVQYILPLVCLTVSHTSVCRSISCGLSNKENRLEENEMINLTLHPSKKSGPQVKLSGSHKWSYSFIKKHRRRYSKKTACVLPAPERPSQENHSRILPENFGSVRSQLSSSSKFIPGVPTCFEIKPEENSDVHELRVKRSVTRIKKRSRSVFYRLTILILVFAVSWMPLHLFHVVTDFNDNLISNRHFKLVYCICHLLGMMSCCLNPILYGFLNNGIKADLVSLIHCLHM
Protocol: (§1) The purpose of this example is to test the in vitro binding of the PYY compounds to the Y1, Y2, Y4 and Y5 receptor subtypes, respectively. The receptor binding affinity is a measure of affinity of a compound for the human Y1, Y2, Y4 and Y5 receptor subtypes, respectively.
(§2) Scintillation Proximity Assay (SPA)
(§3) NPY-Receptor Expressing Cell Lines.
(§4) All cells were cultured at +37° C. in a humidified atmosphere with 5% CO2. […] CHO-K1 cells stably expressing the human Y2 receptor (P49146, NPY2R_HUMAN, Uniprot) were cultured in DMEM F-12 with 10% FBS, 1% P/S, 150 μg/ml Hygromycin B and 10 μg/ml Puromycin antibiotic. CHO-K1 cells stably expressing the human Y4 receptor (P50391, NPY4R_HUMAN, Uniprot) were cultured in DMEM F-12 with 10% FBS, 1% P/S, 10 μg/ml Puromycin. HEK-293 cells stably expressing the human Y5 receptor (Q15761, NPY5R_HUMAN, Uniprot) were cultured in DMEM F-12 medium containing 10% FBS, 1% Penicillin-Streptomycin, 250 μg/ml G418 and 1 μg/ml puromycin. […]
(§5) Plates were sealed and incubated at +25° C. for 2 hours in a plate shaker set at 400 rpm and thereafter centrifuged at 1500 rpm for 10 minutes prior to reading of luminescence on a microplate scintillation and luminescence counter. […] Displacement of radioligand was measured as reduction in luminescence and IC50 values were calculated by nonlinear regression analysis of sigmoidal dose-response curves.

human Y1 receptor = target: T2, human Y1 receptor (Homo sapiens, UniProt P25929); experiment: Scintillation proximity assay (SPA) receptor binding, Y1; conditions: read-out: Y1 Ki; membranes of BHK-21 cells, [125I]-PYY(1-36)
T2 construct: expressed in transfected cells; host or cells: BHK-21 clone 6-482-8, IPTG-induced (membrane preparation)
Protocol: as §1, §2, §3, §4, §5

human Y4 receptor = target: T3, human Y4 receptor (Homo sapiens, UniProt P50391); experiment: Scintillation proximity assay (SPA) receptor binding, Y4; conditions: read-out: Y4 Ki; membranes of CHO-K1 cells, [125I]-Pancreatic Polypeptide
T3 construct: expressed in transfected cells; host or cells: CHO-K1 (membrane preparation)
Protocol: as §1, §2, §3, §4, §5

[1] = Pharmacokinetic study in minipigs after i.v. administration; format: in vivo, Göttingen minipigs; conditions: terminal half-life, 15 nmol/kg
From the text: By terminal half-life is generally meant the period of time it takes to halve a certain plasma concentration, measured after the initial distribution phase.
After minimum 2 weeks of acclimatization two permanent central venous catheters were implemented in vena cava caudalis in each animal. After surgery the animals were in their normal individual pens during the pharmacokinetic experiments.
On day 1 the catheters are coupled to extension tubes, which will be removed at the end of day 1. […] Samples were kept on wet ice until centrifugation (10 min, 4° C., 1942 g).
Plasma concentration-time profiles was analysed by a non-compartmental pharmacokinetics analysis using Phoenix (Pharsight Inc., Mountain View, Calif., USA). Calculations were performed using individual concentration-time values from each animal.

Substance: N{alpha-4}-(3-Methylbutanoyl)-N{Epsilon-7}-[2-[2-[2-[[2-[2-[2-[[(4S)-4-carboxy-4-(15-carboxypentadecanoylamino)butanoyl]amino]ethoxy]ethoxy]acetyl]-amino]ethoxy]ethoxy]acetyl]-[Arg4,Lys7,Gln18,Tyr28,Trp30,Leu31]-PYY(3-36) [Compound 63]
- Ki (human Y5 receptor): 0.276 µM
- Ki (human Y1 receptor): > 10 µM
- Ki (human Y4 receptor): 5.77 µM
- Half-life (t½) [1]: 30 h
